Data published in PubChem BioAssay (NCI).
The entries are a selection whose mix differs from that of the whole data set.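 Step 1: grow cells in 96-well plates. Step 2: add test compound at a single concentration. Step 3: incubate 48 h. Step 4: record percent growth.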 Calls of active or inactive are those of the source. How the source made its calls: active means growth percent below 10; inactive means the rest.

Columns and labels:
Assay in all cases: NCI-60 one-dose screen, 48 h (100 = growth as untreated, 0 = no growth, -100 = all killed)
Conditions in all cases: 10 µM unless noted
[1] = tested on: NCI-H23 lung
[2] = tested on: NCI-H226 lung
[3] = tested on: NCI-H322M lung
[4] = tested on: HOP-62 NSCLC
[5] = tested on: NCI-H460 lung
[6] = tested on: NCI-H522 lung
[7] = tested on: A549/ATCC NSCLC
[8] = tested on: 786-0 renal
[9] = tested on: COLO 205 colon
[10] = tested on: DU-145 prostate
[11] = tested on: K-562 leukemia
[12] = tested on: MALME-3M melanoma
[13] = tested on: MDA-MB-231 breast
[14] = tested on: RXF 393 renal
[15] = tested on: SF-268 CNS
[16] = tested on: SF-295 CNS
[17] = tested on: SF-539 CNS
[18] = tested on: UACC-257 melanoma
[19] = tested on: M14 melanoma

Measured: growth

ClP1(Cl)=NP(Cl)(Cl)=NP(c2ccccc2)(c2ccccc2)=N1
inactive: [1] 98.3% | [2] 106% | [3] 81.8% | [4] 84.5% | [5] 103% | [6] 61.6% | [7] 88.5% | [8] 94.1% | [9] 92.2% | [10] 110% | [11] 92.6% | [12] 109% | [13] 116% | [14] 109% | [15] 108% | [16] 101% | [17] 102% | [18] 91.7% | [19] 91.5%

Cc1ccccc1OP(=O)(Cl)Oc1ccccc1C
inactive: [1] 106% | [2] 96% | [3] 103% | [4] 99% | [5] 106% | [6] 94% | [7] 103% | [8] 96.7% | [9] 106% | [10] 136% | [11] 102% | [12] 91.8% | [13] 105% | [14] 105% | [15] 114% | [16] 110% | [17] 100% | [18] 105% | [19] 99.4%

Cc1ccccc1CN(CCCl)Cc1ccccc1C
inactive: [1] 95.8% | [2] 96.8% | [3] 100% | [4] 109% | [5] 99.2% | [6] 104% | [7] 97% | [9] 108% | [10] 103% | [11] 95.4% | [12] 99.2% | [13] 107% | [14] 107% | [15] 98.2% | [16] 110% | [17] 95% | [18] 103% | [19] 97.3%

COP(=O)(CCCBr)OC
inactive: [1] 107% | [2] 95.5% | [3] 106% | [4] 104% | [5] 109% | [6] 99.5% | [7] 101% | [8] 102% | [9] 115% | [10] 106% | [11] 101% | [12] 113% | [13] 109% | [14] 96% | [15] 108% | [16] 94.8% | [17] 101% | [18] 95.9% | [19] 112%

COc1cccc(OC)c1N(CCCl)CCCl
inactive: [1] 99% | [2] 104% | [3] 93.3% | [4] 96.9% | [5] 110% | [6] 86.2% | [7] 102% | [8] 93.2% | [9] 97.7% | [10] 102% | [11] 97.2% | [12] 90.4% | [13] 111% | [14] 107% | [15] 96.8% | [16] 98.8% | [17] 95% | [18] 115% | [19] 93.8%

COc1cc(I)ccc1[As](=O)(O)O
inactive: [1] 135% | [2] 111% | [3] 115% | [4] 111% | [5] 105% | [6] 114% | [7] 102% | [8] 104% | [9] 144% | [10] 111% | [11] 98.3% | [12] 137% | [13] 111% | [15] 105% | [16] 103% | [17] 99.2% | [18] 91.2% | [19] 106%

COC(=O)C(=[N+]=[N-])C(=O)c1cc([N+](=O)[O-])cc([N+](=O)[O-])c1
inactive: [1] 114% | [2] 109% | [3] 113% | [4] 106% | [5] 105% | [6] 124% | [7] 112% | [8] 96.8% | [9] 107% | [10] 107% | [12] 113% | [14] 108% | [15] 106% | [16] 91.7% | [17] 110% | [18] 105% | [19] 100%

O=P1(N(CCCl)CCCl)OCCCN1CCCl (stereo not given)
inactive: [1] 116% | [2] 89.2% | [3] 123% | [4] 104% | [5] 101% | [6] 114% | [7] 101% | [8] 91.1% | [9] 110% | [10] 102% | [11] 106% | [13] 107% | [14] 104% | [15] 106% | [16] 102% | [17] 100% | [18] 104% | [19] 104%

O=P(Nc1ncccn1)(N1CC1)N1CC1
inactive: [1] 97.5% | [2] 94.5% | [3] 108% | [4] 114% | [5] 104% | [6] 115% | [7] 87.7% | [8] 108% | [9] 108% | [10] 118% | [11] 111% | [12] 104% | [13] 92.1% | [14] 101% | [15] 110% | [16] 95.4% | [17] 102% | [18] 97.8% | [19] 102%

CCN(CCCl)C(Cc1ccccc1)c1ccccc1 (stereo not given)
inactive: [1] 100% | [2] 105% | [3] 84.8% | [4] 95.6% | [5] 105% | [6] 74.4% | [7] 83.1% | [8] 101% | [9] 101% | [10] 109% | [11] 87.9% | [12] 103% | [13] 112% | [14] 111% | [15] 104% | [16] 101% | [17] 111% | [18] 86.3% | [19] 93.9%

CCOC(=O)Nc1cccc([As](=O)(O)O)c1
inactive: [1] 107% | [2] 78.7% | [3] 93.7% | [4] 86.3% | [5] 101% | [6] 87.3% | [7] 117% | [8] 101% | [9] 108% | [10] 101% | [11] 96.5% | [12] 90% | [13] 112% | [15] 96.3% | [16] 110% | [17] 90% | [18] 105% | [19] 99.4%

CCSC(O)C(Cl)(Cl)Cl (stereo not given)
inactive: [1] 102% | [2] 92.7% | [3] 93.6% | [4] 101% | [5] 105% | [6] 96.5% | [7] 100% | [8] 103% | [9] 116% | [10] 111% | [11] 104% | [12] 90.1% | [13] 114% | [14] 88.6% | [15] 106% | [16] 109% | [17] 110% | [18] 94.5% | [19] 101%

O=[N+]([O-])c1ccc(SSc2ccc([N+](=O)[O-])cc2[N+](=O)[O-])c([N+](=O)[O-])c1
inactive: [1] 95% | [2] 95.7% | [3] 99.7% | [4] 95.3% | [5] 103% | [6] 93.1% | [7] 99.6% | [8] 102% | [9] 110% | [10] 110% | [11] 24% | [13] 88.1% | [15] 103% | [16] 103% | [18] 95.7% | [19] 97.8%

CCOP(=O)(Nc1ccc(C)cn1)OCC
inactive: [1] 94.2% | [2] 122% | [3] 120% | [4] 106% | [5] 102% | [6] 97.4% | [7] 93.1% | [8] 103% | [9] 115% | [10] 109% | [11] 104% | [12] 130% | [13] 148% | [14] 101% | [15] 107% | [16] 112% | [17] 101% | [18] 92% | [19] 105%

COP(=O)(OC)N(CCCl)CCCl
inactive: [1] 108% | [2] 93% | [3] 98.7% | [4] 102% | [5] 102% | [6] 103% | [7] 95.4% | [8] 104% | [9] 115% | [10] 113% | [11] 46.2% | [12] 98.5% | [13] 107% | [14] 98.5% | [15] 112% | [16] 98% | [17] 100% | [18] 99.8% | [19] 118%

CCOP(=O)(CCCBr)OCC
inactive: [1] 108% | [2] 93.5% | [3] 99.4% | [4] 102% | [5] 107% | [6] 97.5% | [7] 96.8% | [8] 106% | [9] 120% | [10] 115% | [11] 107% | [12] 109% | [13] 122% | [14] 105% | [15] 114% | [17] 102% | [18] 102% | [19] 115%

Nc1ccc(N=Nc2ccc([As](=O)(O)O)cc2)cc1
inactive: [1] 104% | [2] 93.8% | [3] 92.1% | [4] 102% | [5] 109% | [6] 92.4% | [7] 101% | [8] 101% | [9] 106% | [10] 126% | [12] 97.3% | [13] 99.2% | [15] 102% | [16] 109% | [17] 95.7% | [18] 109% | [19] 107%

Cc1ccc(NCCCl)c2c(=O)c3ccccc3sc12
inactive: [1] 85.8% | [2] 95.6% | [3] 83.5% | [4] 119% | [5] 101% | [6] 100% | [7] 102% | [8] 103% | [9] 114% | [10] 104% | [11] 116% | [12] 104% | [13] 103% | [14] 90.1% | [15] 102% | [16] 98% | [17] 102% | [18] 96.9% | [19] 108%
